Measurements taken from ChEMBL document CHEMBL1131500, “Novel biologically active nonpeptidic inhibitors of myristoylCoA:protein N-myristoyltransferase” (J Med Chem, 1998).

Biological target: T1, Glycylpeptide N-tetradecanoyltransferase (Candida albicans (strain SC5314 / ATCC MYA-2876) (Yeast), UniProt P30418)
T1 sequence (P30418 whole entry): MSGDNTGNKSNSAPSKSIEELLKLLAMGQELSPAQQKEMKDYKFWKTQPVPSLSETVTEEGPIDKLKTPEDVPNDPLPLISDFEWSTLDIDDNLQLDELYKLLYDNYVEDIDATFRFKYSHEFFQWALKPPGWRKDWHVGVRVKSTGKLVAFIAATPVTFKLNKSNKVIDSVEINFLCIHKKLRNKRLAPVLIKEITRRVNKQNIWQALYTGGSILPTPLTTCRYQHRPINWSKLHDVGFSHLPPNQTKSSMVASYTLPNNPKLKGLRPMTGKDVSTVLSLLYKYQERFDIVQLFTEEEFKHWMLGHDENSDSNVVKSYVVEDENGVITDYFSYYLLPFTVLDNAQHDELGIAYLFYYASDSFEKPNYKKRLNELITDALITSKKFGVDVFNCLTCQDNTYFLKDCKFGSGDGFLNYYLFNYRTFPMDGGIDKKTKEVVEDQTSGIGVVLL
Test: The Compound was tested for the inhibition potency against Candida albicans N-myristoyltransferase (NMT) and reported as apparent Ki

Cc1nccn1CCCCc1ccc(CC(=O)N[C@@H](CO)C(=O)N[C@@H](CCCCN)C(=O)NCCC2CCCCC2)cc1 [SC-58272]
Ki: 0.031 app
